# Some of the results follow.
# Tested on: A. baumannii ATCC 17978
# Assay: relative growth (fraction of control); higher = less inhibition
# Settings: 50 µM
row,Structure (SMILES),relative growth
1,C/C=C/c1ccc2c(c1)O[C@@H](CN(C)Cc1ccc(C(=O)O)cc1)[C@H](C)CN([C@@H](C)CO)S2(=O)=O,1.17
2,COc1cc2c(cc1OC)CN(C(=O)[C@@H]1[C@H]3C(=O)O[C@H](c4ccccc4)[C@H](c4ccccc4)N3[C@H](c3ccc(OCCO)cc3)[C@@]13C(=O)Nc1ccccc13)CC2,1.23
3,Cc1ccc(NC2=CC(=O)C[C@H](c3ccc(Cl)cc3)C2)cc1,1.01
4,O=C(C[C@@H]1C=C[C@@H](NC(=O)Cc2ccccn2)[C@H](CO)O1)NCCc1ccncc1,0.981
5,O=C(C[C@@H]1CC[C@H]2[C@@H](COC[C@H](O)CN2C(=O)Nc2cccc(F)c2)O1)NCc1ccccc1Cl,0.945
6,CCOC(=O)C1=C(COCCN)NC(C)=C(C(=O)OC)C1c1ccccc1Cl.O=S(=O)(O)c1ccccc1 (stereo not drawn),1.1
7,Cc1ccc(NC(=O)c2ccc(CN3CCN(C)CC3)cc2)cc1Nc1nccc(-c2cccnc2)n1,0.997
8,CO[C@@H]1CN(C)C(=O)c2cc(NC(=O)Nc3ccccc3F)ccc2OC[C@H](C)N(Cc2ccccc2C(=O)O)C[C@@H]1C,1
9,O=C(C[C@@H]1C=C[C@H](NC(=O)c2cccnc2)[C@H](CO)O1)NCCN1CCCCC1,1.09
10,COCC(=O)Nc1ccc2c(c1)OC[C@@H](C)N(C(=O)Cc1ccccn1)C[C@H](C)[C@@H](OC)CN(C)C2=O,1.07
11,C[C@@H]1CN([C@H](C)CO)C(=O)c2cc(C#CCN(C)C)cnc2O[C@@H]1CN(C)C(=O)Nc1cccc(F)c1,0.966
12,Cn1cnc(S(=O)(=O)N2C[C@@H](O)COC[C@@H]3O[C@H](CC(=O)NC4CCC4)CC[C@H]32)c1,1.08
13,O=C(NC[C@@H](O)CO)[C@]1(Cc2ccccc2)N=C(c2ccc(OCCCO)cc2)O[C@@H]1c1ccccc1,0.718
14,Cc1ccccc1S(=O)(=O)N1C[C@@H](O)COC[C@@H]2O[C@@H](CC(=O)NCCc3ccccc3)CC[C@H]21,1.09
15,CN(C)CCC(=O)N1CCNCC1,1.21
16,O=C(C[C@H]1CC[C@@H]2[C@H](COC[C@@H](O)CN2S(=O)(=O)c2ccccc2)O1)NCc1ccc(-c2ccccc2)cc1,0.903
17,O=C(C[C@@H]1CC[C@@H](NC(=O)Nc2ccc3c(c2)OCO3)[C@H](CO)O1)NCCCN1CCOCC1,0.865
18,CCOC(=O)COc1ccc2c(=O)cc(-c3ccccc3)oc2c1,0.903
19,NC(=O)CCNCc1ccccc1,0.839
20,CN1C2CCCC1CC(NC(=O)c1nn(C)c3ccccc13)C2.Cl (stereo not drawn),1.04
21,Cn1c(=O)[nH]c(=O)c2[nH]cnc21,0.927
22,C[N+](C)(C)CCOC(N)=O.[Cl-],1.11

row,Structure (SMILES),relative growth
1,CCN1C(=O)S[C@@H](CC(=O)O)C1=O,1.14
2,NC[C@@H](c1cccnc1)S(=O)(=O)c1ccc(Cl)cc1,1
3,FC(F)(F)c1ccc(CSc2c[nH]c3ccccc23)cc1,0.812
4,O=C(C1CCCCC1)N1CC(=O)N2CCc3ccccc3C2C1 (stereo not drawn),1.05
5,COc1oc(C(=O)NC2CCCCC2)c(-c2ccc(Cl)cc2)c1S(=O)(=O)c1ccc2c(c1)OCCO2,1.21
6,O=C(C[C@H]1CC[C@@H]2[C@H](COC[C@H](O)CN2C(=O)c2ccc3c(c2)OCO3)O1)NCCN1CCCC1,0.981
7,COCC#Cc1ccc2c(c1)O[C@@H](CN(C)C(=O)C1CCOCC1)[C@@H](C)CN([C@H](C)CO)S2(=O)=O,1.01
8,C[C@H]1CN([C@@H](C)CO)S(=O)(=O)c2ccc(C#CC(C)(C)O)cc2O[C@@H]1CN(C)C(=O)CN(C)C,1.09
9,Cc1ccc(S(=O)(=O)N2C[C@H](O)COC[C@H]3O[C@@H](CC(=O)NCCCN(C)C)CC[C@@H]32)cc1,1.16
10,NC(=S)Nc1ccc(S(N)(=O)=O)cc1,1.15
11,Cn1cnc(S(=O)(=O)N2C[C@H](O)COC[C@H]3O[C@@H](CC(=O)NC4CCC4)CC[C@@H]32)c1,0.906
12,Cc1ccc(S[C@]2(C(=O)NCc3ccccc3)CC(=O)N(Cc3ccccc3C(F)(F)F)[C@@H]2c2ccc(CO)cc2)cc1,1.12
13,CC(C)CC#Cc1ccc2c(c1)O[C@@H](CN(C)S(=O)(=O)c1ccc(F)cc1)[C@H](C)CN([C@H](C)CO)S2(=O)=O,1.09
14,C[N+](C)(C)CCCC[C@@H]1NC(=O)[C@H]2C[C@@H](C(=O)NCc3ccc(F)cc3)[C@@H](c3cccc(OCCO)c3)N2C1=O,0.926
15,O=C(C[C@H]1C=C[C@H](NC(=O)Nc2cc(F)ccc2F)[C@H](CO)O1)NCCCN1CCOCC1,1.04
16,OC[C@H]1O[C@H](O[C@]2(CCl)O[C@H](CCl)[C@@H](O)[C@@H]2O)[C@H](O)[C@@H](O)[C@H]1Cl,0.923
17,COc1ccc(S(=O)(=O)N[C@@H]2C=C[C@@H](CC(=O)N3CCN(c4ccccc4)CC3)O[C@@H]2CO)cc1,0.935
18,CCCNC(=O)N1C[C@@H](O)COC[C@@H]2O[C@@H](CC(=O)N3CCOCC3)CC[C@H]21,0.989
19,O=C([O-])P(=O)([O-])[O-].[Na+].[Na+].[Na+],1.02
20,O=c1c(-c2nn[nH]n2)coc2ccccc12,1.01
21,COc1ccc(S(=O)(=O)N(C)C[C@@H]2Oc3c(NC(=O)Nc4cccc5ccccc45)cccc3C(=O)N([C@@H](C)CO)C[C@H]2C)cc1C,1.05
22,COc1ccc2c(c1)c(CC(=O)O)c(C)n2C(=O)c1ccc(Cl)cc1,1.15

row,Structure (SMILES),relative growth
1,CC(C)N(C[C@H]1O[C@@H](n2cnc3c(N)ncnc32)[C@H](O)[C@@H]1O)[C@H]1C[C@@H](CCc2nc3ccc(C(C)(C)C)cc3[nH]2)C1,1.51
2,CC1(C)C=Cc2c(c3c(c4c(=O)c(-c5ccc(O)c(O)c5)coc24)OC(C)(C)CC3)O1,0.864
3,CCCNC(=O)N[C@H]1C=C[C@@H](CC(=O)N2CCN(C)CC2)O[C@@H]1CO,1.07
4,Cc1c(C(=O)O)sc2[nH]cnc(=O)c12,0.912
5,Cc1ccc(-c2ccc3c(c2)O[C@@H](CN(C)C(=O)CN(C)C)[C@H](C)CN([C@@H](C)CO)S3(=O)=O)cc1,0.811
6,CNC(=O)C(=O)NCCc1c[nH]c2ccccc12,1.06
7,Nc1nc2ccc(OC(F)(F)F)cc2s1,0.908
8,C=C1CCC2[C@](C)(CO)[C@H](O)CC[C@@]2(C)[C@@H]1C/C=C1/C(=O)OC[C@H]1O (stereo partly drawn),1.05
9,Oc1cc(O)c2c(c1)O[C@H](c1ccc(O)c(O)c1)[C@H](O)C2,1.06
10,CCCCc1oc2ccc(NS(C)(=O)=O)cc2c1C(=O)c1ccc(OCCCN(CCCC)CCCC)cc1.Cl,1.09
11,C[C@@H]1CN([C@H](C)CO)S(=O)(=O)c2ccc(C#CC(C)(C)O)cc2O[C@H]1CN(C)C(=O)CN(C)C,0.736
12,CCc1nc2ccccc2c(N)c1C,0.853
13,NCC[C@@H]1CC[C@@H](NC(=O)C2CCCC2)[C@@H](CO)O1,0.981
14,CCCCC(=O)O[C@H]1CCC2C3CCc4cc(O)ccc4C3CC[C@@]21C (stereo partly drawn),1.41
15,C(=N\n1cnnc1)/c1ccco1,0.857
16,C[C@@H]1CN([C@@H](C)CO)S(=O)(=O)c2ccc(C#Cc3ccc(F)cc3)cc2O[C@@H]1CN(C)S(=O)(=O)c1ccc(F)cc1,1.12
17,NC(=O)C(C(N)=O)[C@H]1CCS(=O)(=O)C1,1.08
18,CN1CCN(C(=O)C[C@H]2CC[C@@H]3[C@H](COC[C@@H](O)CN3C(=O)Nc3cc(Cl)cc(Cl)c3)O2)CC1,0.857
19,COCC(=O)N[C@@H]1C=C[C@H](CC(=O)N2CCCCC2)O[C@H]1CO,0.926
20,CN(C)CCCNC(=O)C[C@@H]1CC[C@@H](NS(=O)(=O)c2ccccc2)[C@@H](CO)O1,1.01
21,S=C1NCN(Cc2cccs2)CN1,0.919
22,Cn1cnc(S(=O)(=O)N2C[C@@H](O)COC[C@H]3O[C@H](CC(=O)NCc4cc(F)cc(F)c4)CC[C@@H]32)c1,0.876

row,Structure (SMILES),relative growth
1,Nc1ncnc2c1ncn2CCN1CCOCC1,1.05
2,CC(=O)N(C)C[C@@H]1Oc2ncc(C#C[C@@H](C)O)cc2C(=O)N([C@H](C)CO)C[C@@H]1C,0.962
3,CN(C)CCCCCCNC(=O)[C@H]1C[C@H]2C(=O)N3CCC[C@H]3C(=O)N2[C@H]1c1cccc(OCCO)c1,0.953
4,C[C@@H]1CN([C@@H](C)CO)S(=O)(=O)c2ccc(-c3ccc(C(=O)N(C)C)cc3)cc2O[C@@H]1CN(C)C(=O)C1CCOCC1,0.856
5,O=C1C=C(O)C(=O)c2ccccc21,1.01
6,Cc1sc(C)c(CNc2ccccc2)c1CNc1ccccc1,1.01
7,CCNC(=O)C[C@@H]1C=C[C@@H](NC(=O)C2CCOCC2)[C@H](CO)O1,0.986
8,CN(C)CCOC(c1ccccc1)c1ccccc1.Cl,1.02
9,COc1ccc(C)c2c1CCCC2=O,1.02
10,CSc1nn(C)c2cnn(C)c(=O)c12,1.05
11,O=C(CN1CCOCC1)N[C@@H]1CC[C@@H](CCNC(=O)C2CCCCC2)O[C@H]1CO,0.98
12,Cl.OC(CNCC(O)C1CCc2cc(F)ccc2O1)C1CCc2cc(F)ccc2O1 (stereo not drawn),0.849
13,COc1ccc([Si](C)(C)[C@H]2[C@H](CCO)O[C@@]3(C(=O)N(Cc4ccccc4)c4ccc(N5C(=O)c6cccc7cccc5c67)cc43)[C@@H]2C)cc1,1.38
14,Cc1ccn2c(=O)c(C(=O)O)cnc2c1,1.06
15,COC[C@H]1CNN1C(=O)C1CCCC1,1.04
16,O=C(O)c1c(O)c2c([nH]c1=O)CCCC2,0.152
17,CS(=O)(=O)N[C@@H](C(=O)O)c1ccccc1,1.12
18,CC1(C)C(=O)NCCN1C(=O)c1ccco1,0.94
19,O=C(CCc1ccc(O)cc1)c1c(O)cc(O)cc1O,1.16
20,CCCN[C@H]1CCc2nc(N)sc2C1.Cl.Cl,0.982
21,Cn1nnnc1SCC(=O)Nc1ncccn1,1.06
22,COc1ccc(/C=C/CN2CCC(C(=O)N[C@@H](c3ccc(F)cc3)c3ccc4ccccc4n3)CC2)cc1,0.692

# Source: published antibiotic growth screens (doi:10.1038/s41589-023-01349-8)
